# The entries are a selection whose mix differs from that of the whole data set. Results filed as inconclusive are left out. Calls of active or inactive are those of the source. Calls come from the whole dose curve; as a rule, active = well fitted activation curve with a large enough effect; inconclusive = small, poorly fitted or top-dose-only effect; inactive = no such curve, though single readings can be large or run the other way.
# Amino acid sequences for entries named in this document (tags omitted).
# UniProt P04637, whole entry: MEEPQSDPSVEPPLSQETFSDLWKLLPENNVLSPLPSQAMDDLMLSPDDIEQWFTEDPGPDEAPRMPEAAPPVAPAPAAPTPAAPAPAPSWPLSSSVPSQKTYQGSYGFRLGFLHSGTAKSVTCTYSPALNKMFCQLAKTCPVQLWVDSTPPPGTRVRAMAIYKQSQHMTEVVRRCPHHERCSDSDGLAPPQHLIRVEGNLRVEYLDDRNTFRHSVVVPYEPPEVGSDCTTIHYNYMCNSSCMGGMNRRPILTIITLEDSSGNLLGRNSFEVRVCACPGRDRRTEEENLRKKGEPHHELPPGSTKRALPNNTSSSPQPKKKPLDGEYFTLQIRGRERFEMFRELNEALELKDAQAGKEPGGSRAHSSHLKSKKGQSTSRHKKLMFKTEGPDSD
# Biological target: Cellular tumor antigen p53 (Homo sapiens) (UniProt P04637)
# Assay: Primary qHTS for small molecule compounds that upregulate eGFP-tagged delta133p53alpha (in N-terminal) cells. (AID 2060322);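 note: cells pre-induced with doxycycline then dosed without doxycycline; series mostly up to about 56 µM; 0% = DMSO vehicle and 100% = reference activator; nearly all actives have a fitted effect of over 75% in size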
# Settings: NCI-H358 eGFP-delta133p53alpha fluorescence, 24 h; stronger effect = higher value
smiles,measurement,value
Cc1cccc([N+](=O)[O-])c1[N+](=O)[O-],activation,inactive: -21.8%
